Structures are written as SMILES. This is a selection; strong and weak results do not stand in their true shares. Some salts and complexes are drawn in separate pieces, as the source files them; their charges need not balance. Activity calls are given as the source filed them.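 The calls were made as follows: active = activation above 40% with more than 50 cells counted in the well; inconclusive = wells holding fewer than 50 cells, flagged as toxic or sparse; inactive = the rest.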

By UniProt entry, the sequences of proteins in these tests, tags left out.
UniProt Q9Y2T6, whole entry: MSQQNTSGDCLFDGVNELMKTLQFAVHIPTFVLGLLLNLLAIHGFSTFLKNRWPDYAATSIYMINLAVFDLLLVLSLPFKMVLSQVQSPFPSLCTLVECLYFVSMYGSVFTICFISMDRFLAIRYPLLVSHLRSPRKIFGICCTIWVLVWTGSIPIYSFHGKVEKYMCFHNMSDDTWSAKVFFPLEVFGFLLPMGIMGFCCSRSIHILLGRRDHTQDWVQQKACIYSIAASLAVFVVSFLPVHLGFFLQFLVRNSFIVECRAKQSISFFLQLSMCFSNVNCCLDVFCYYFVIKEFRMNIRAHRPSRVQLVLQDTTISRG

The text below walks through data of PubChem BioAssay AID1961 (Sanford-Burnham Center for Chemical Genomics, 2009).

The target in the experiment is G-protein coupled receptor 55 (Homo sapiens) (UniProt Q9Y2T6). Kind of experiment: selective activators of receptor GPR55 – imaging, U2OS cells, beta-arrestin-GFP redistribution, primary screen (AID 1961).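 As to activation: U2OS osteosarcoma cells stably expressing GPR55 and beta-arrestin-GFP; plate controls were DMSO negative control for no effect and LPI positive control for full effect.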 The conditions noted are these: at 10 µM; active compounds read high.
In the case of `CCCOc1ccc(NP(C)(=O)Oc2ccc(Cl)cc2)cc1` (stereo not drawn), the activation was inactive: -0.1%.

Consider `Nc1cccc([As](=O)(O)c2ccccc2)c1`, for which the activation result was “inactive”.

For `CP(=O)(Nc1ccc(SC(F)(F)F)cc1)Oc1ccccc1` (stereo not drawn), the activation is inactive: -0.2%.

On to `O=[As](O)(c1cccs1)c1cccs1`, for which the activation entry is “inactive”.

Regarding `O=P1(Nc2ccc(Br)cn2)COc2ccccc2OC1`, the activation result is “inactive”.

Take `CCOC(=O)Nc1ccc([As](=O)(O)O)c(O)c1`: the activation entry was “inactive”.

In the case of `Cc1cc(SC(NC(=O)c2ccccc2)C(Cl)(Cl)Cl)nc(C(C)C)n1` (stereo not drawn), the activation entry was “inactive”.

For the compound `CCCCOc1ccc(C(=O)NCC2(N3CCCCC3)CCCCC2)cc1OC`, the activation result was “inactive”.

Turning to `CP(=S)(Nn1cnnc1)Oc1ccccc1` (stereo not drawn), the activation is inactive: -0.1%.

For the compound `COc1ccccc1OP(C)(=O)Nc1ccccc1` (stereo not drawn), the activation is inactive: 0.1%.

`O=P(Nc1ccccn1)(c1cccc2ccccc12)c1cccc2ccccc12`: the activation result was “inactive”.

In the case of `O=[N+]([O-])c1ccc(Nc2ccc(Oc3ccc([N+](=O)[O-])cc3[N+](=O)[O-])cc2)c([N+](=O)[O-])c1`, the activation result was “inactive”.

In the case of `CP(=O)(Nc1ccccc1Br)Oc1ccccc1` (stereo not drawn), the activation is inactive: -0.2%.

Consider `CP(=O)(Oc1ccccc1)OC(c1ccccc1)C(F)(F)F` (stereo not drawn), for which the activation was inactive: 0.1%.

On to `COP1(=S)c2c(C)nn(CCC#N)c2N=C(c2ccc(F)cc2)N1C` (stereo not drawn), for which the activation result is “inactive”.

As for `Cc1cccc(C)c1OP(C)(=O)Nc1ccc(SC(F)(F)F)cc1` (stereo not drawn), the activation was inactive: 0%.

As to `CP(=O)(Nc1ccc(SC(F)(F)F)cc1)Oc1ccc(Cl)cc1` (stereo not drawn), the activation was inactive: -0.1%.

With `Cc1cc(C)cc(OP(C)(=O)Nc2ccc(SC(F)(F)F)cc2)c1` (stereo not drawn), the activation was inactive: 0.3%.

As to `CP(=O)(NC(=O)Nc1ccccc1)Oc1ccccc1` (stereo not drawn), the activation was inactive: 0.2%.

Regarding `CCc1ccc(OP(C)(=O)N2CCN(c3ccc([N+](=O)[O-])cc3)CC2)cc1` (stereo not drawn), the activation is inactive: 0.3%.

As to `CCOP(C)(=S)SCC(=O)NC(C)C(=O)O` (stereo not drawn), the activation was inactive: -0.2%.

For the compound `O=C(OC1CN2CCC1CC2)c1cccc([N+](=O)[O-])c1` (stereo not drawn), the activation entry was “inactive”.

As for `CCOC(=O)c1ccc(NP(C)(=O)Oc2ccc(OC)cc2)cc1` (stereo not drawn), the activation is inactive: -0.3%.

As for `CP(=O)(Nc1ccccn1)Oc1ccc(Cl)cc1` (stereo not drawn), the activation was inactive: -0.2%.

Consider `CCN(CC)CCCOC(=O)C(O)(c1ccccc1)c1ccccc1`, for which the activation was inactive: 0.4%.

On to `COc1cc(I)ccc1[As](=O)(O)O`, for which the activation entry was “inactive”.

In the case of `COc1ccc2nc(NP(=O)(c3ccccc3)c3ccccc3)sc2c1`, the activation result is “inactive”.

`C[As](=O)(O)c1cccc(C(=O)O)c1`: the activation result was “inactive”.

Regarding `O=[As](O)(c1ccc(O)cc1)c1ccccc1O`, the activation entry is “inactive”.

`Cc1cccc(C)c1OP(C)(N)=O` (stereo not drawn): the activation is inactive: -0.4%.

As to `CC(C)(C)c1ccc(OP(C)(=O)Nc2ccc(SC(F)(F)F)cc2)cc1` (stereo not drawn), the activation was inactive: 0.5%.

Consider `O=[N+]([O-])c1ccc2c(c1)C=Nc1ccccc1O2`, for which the activation was inactive: 0.5%.

As for `CCOC(=O)c1ccc(NP(C)(=O)Oc2ccccc2)cc1` (stereo not drawn), the activation was inactive: -0.2%.

Take `CC(C)c1ccc(OP(=O)(Nc2ccccn2)Oc2ccccc2F)cc1` (stereo not drawn): the activation result was “inactive”.

`Cc1ccc(NP(C)(=O)Oc2ccccc2)c(C)c1` (stereo not drawn): the activation was inactive: -0.2%.

On to `COc1ccccc1OP(C)(=O)Nc1ccc(C)cc1` (stereo not drawn), for which the activation was inactive: -0.3%.

For `COc1ccc(OP(C)(=O)Nc2cccc(F)c2)cc1` (stereo not drawn), the activation was inactive: -0.2%.

Regarding `COc1ccccc1OP(C)(=O)Nc1cc(Cl)ccc1C` (stereo not drawn), the activation was inactive: -0.1%.

For the compound `Cc1cc(C)cc(OP(C)(N)=O)c1` (stereo not drawn), the activation was inactive: -0.3%.

For the compound `Cc1cc(C)cc(OP(C)(=O)Nc2cccc(C(F)(F)F)c2)c1` (stereo not drawn), the activation is inactive: -0.1%.

For the compound `COc1ccc(OP(C)(=O)Nc2ccccc2Br)cc1` (stereo not drawn), the activation was inactive: -0.3%.

As to `COc1ccccc1OP(C)(=O)Nc1ccc(C)c(C)c1` (stereo not drawn), the activation was inactive: 0.2%.

Turning to `Cc1nc2ccc3ccccc3c2o1.O=[N+]([O-])c1cc([N+](=O)[O-])c(O)c([N+](=O)[O-])c1`, the activation was inactive: 0.4%.

Consider `CP(=O)(Nc1ccc(Cl)cc1Cl)Oc1ccccc1` (stereo not drawn), for which the activation was inactive: 0.2%.

Consider `CP(=O)(OCCOc1ccccc1)OCCOc1ccccc1`, for which the activation was inactive: -0.7%.

`COc1ccccc1OP(C)(=O)Nc1ccc(Br)cc1` (stereo not drawn): the activation is inactive: -0.3%.

For `Clc1ccc(Cl)c(NC2=NCC(CBr)S2)c1` (stereo not drawn), the activation entry is “inactive”.

In the case of `CN(C)CCOC(=O)C(O)(c1ccccc1)C1CCCC1` (stereo not drawn), the activation entry is “inactive”.

With `COc1ccc(OP(C)(=O)Nc2ccccn2)cc1` (stereo not drawn), the activation was inactive: -0.1%.

Consider `Oc1ccccc1CNc1ccccn1`, for which the activation entry was “inactive”.

On to `Cc1c(NP(C)(=O)Oc2ccc(C(C)C)cc2)c(=O)n(-c2ccccc2)n1C` (stereo not drawn), for which the activation was inactive: -0.1%.

For the compound `O=[N+]([O-])c1cc([N+](=O)[O-])c(Nc2ccccn2)c([N+](=O)[O-])c1`, the activation is inactive: 0.8%.

`CCc1ccc(OP(C)(=O)O)cc1`: the activation was inactive: -0.2%.

Regarding `COc1ccccc1OP(C)(=O)Nc1ccc(C)cc1C` (stereo not drawn), the activation was inactive: -0.1%.

With `CP(=O)(Nc1ccccn1)Oc1ccccc1` (stereo not drawn), the activation is inactive: 0.2%.

`COc1ccc(OP(C)(=O)Nc2ccc(Br)cc2)cc1` (stereo not drawn): the activation is inactive: -0.1%.

For `CCN(CC)CC(O)COC(=O)C(O)(c1ccccc1)C1CCCCC1` (stereo not drawn), the activation result was “inactive”.

For the compound `CCc1ccc(OP(C)(=O)Nc2cccnc2)cc1` (stereo not drawn), the activation is inactive: -0.3%.

Take `CP(=O)(Oc1ccccc1)N1CCOC1=O` (stereo not drawn): the activation was inactive: -0.2%.

As to `O=C(OCCCN1CCCC1)C(O)(c1ccccc1)C1CCCCC1` (stereo not drawn), the activation is inactive: -0.1%.

On to `O=[N+]([O-])c1cccc2n[nH]nc12`, for which the activation result was “inactive”.

In the case of `COc1ccccc1OP(C)(=O)Nc1c(C)n(C)n(-c2ccccc2)c1=O` (stereo not drawn), the activation is inactive: -0.1%.

As to `CP(=O)(Nc1ccc(Cl)cc1)Oc1ccc(F)cc1` (stereo not drawn), the activation was inactive: -0.1%.

Regarding `C[N+]1=C2C=CC=CC=C2SC12C([N+](=O)[O-])=CC([N+](=O)[O-])=C[C-]2[N+](=O)[O-]` (stereo not drawn), the activation result was “inactive”.

For `COc1ccccc1OP(C)(=O)Nc1ccccc1Br` (stereo not drawn), the activation is inactive: -0.3%.

Turning to `CC(C)(C)c1ccc(OP(C)(=O)O)cc1`, the activation was inactive: -0.1%.

On to `Nc1ccc([As](=O)(O)c2ccc(N)cc2)cc1`, for which the activation result was “inactive”.

Take `CC1CCN(C(=O)Oc2c(Cl)cc(Cl)c3cccnc23)CC1`: the activation result is “inactive”.

For the compound `CN(C)C(=O)c1c([N+](=O)[O-])cc([N+](=O)[O-])cc1[N+](=O)[O-]`, the activation was inactive: -0.3%.

On to `CC(C)=N/N=C(\N)N[N+](=O)[O-]`, for which the activation entry is “inactive”.

In the case of `CP(=O)(OC12CC3CC(CC(C3)C1)C2)OC12CC3CC(CC(C3)C1)C2`, the activation is inactive: 0%.

As for `CCOC(=O)c1ccc(NP(C)(=O)Oc2ccc(Cl)cc2)cc1` (stereo not drawn), the activation is inactive: -0.3%.

On to `O=[N+]([O-])c1cccc(NC2=NCC(CBr)S2)c1` (stereo not drawn), for which the activation entry was “inactive”.

As for `O=P(Nc1ccccn1)(c1ccc(Br)cc1)c1ccc(Br)cc1`, the activation result was “inactive”.

For the compound `COc1ccc(OP(C)(=O)Nc2cccc(Br)c2)cc1` (stereo not drawn), the activation is inactive: -0.1%.

Regarding `COc1ccc(NP(C)(=O)Oc2ccccc2OC)cc1` (stereo not drawn), the activation is inactive: -0.7%.

For the compound `CN(C)CCOC(=O)C(O)(c1ccccc1)C1CCCCC1` (stereo not drawn), the activation was inactive: 0%.

Turning to `O=[N+]([O-])c1cc([N+](=O)[O-])c(NCC2CCS(=O)(=O)C2)c([N+](=O)[O-])c1` (stereo not drawn), the activation is inactive: -0.3%.

As for `Cc1cc(-c2cccc3ccccc23)c(C)cn1.O=[N+]([O-])c1cc([N+](=O)[O-])c(O)c([N+](=O)[O-])c1`, the activation is inactive: -0.3%.

`O=[As](O)(c1ccccc1)c1ccc(O)cc1`: the activation entry was “inactive”.

For `O=[N+]([O-])c1ccc(O)c(/C=N/Nc2ccc([N+](=O)[O-])cc2[N+](=O)[O-])c1`, the activation entry is “inactive”.

Consider `O=[N+]([O-])c1ncn(CCn2cnc([N+](=O)[O-])n2)n1`, for which the activation result is “inactive”.

Consider `O=[N+]([O-])c1ccc(OP2(=O)COCCO2)cc1` (stereo not drawn), for which the activation was inactive: 0.2%.

For `O=C(OC1CN2CCC1CC2)c1cccc(Cl)c1` (stereo not drawn), the activation result was “inactive”.

For the compound `CP(=O)(Nc1ccc(SC(F)(F)F)cc1)Oc1ccc(F)cc1` (stereo not drawn), the activation was inactive: -0.3%.

For the compound `CCOP(C)(=S)SCC(=O)NC(C)(CC)C(=O)O` (stereo not drawn), the activation was inactive: -0.4%.

For `CP(=O)(Nc1ccc2c(c1)OCCO2)Oc1ccccc1` (stereo not drawn), the activation was inactive: -0.2%.

With `Cc1ccccc1NP(C)(=O)Nc1ccccc1C`, the activation was inactive: -0.1%.

Regarding `CC(C)c1ccc(OP(C)(=O)Nc2ccc(SC(F)(F)F)cc2)cc1` (stereo not drawn), the activation is inactive: 1.3%.

On to `CP(=O)(Nc1ccccc1F)Oc1ccccc1` (stereo not drawn), for which the activation is inactive: 0.6%.

As to `O=C(OCCN1CCN(CCOCc2ccccc2)CC1)C(O)(c1ccccc1)c1ccccc1`, the activation is inactive: 1.1%.

Turning to `O=C(OC1CN2CCC1CC2)c1ccc([N+](=O)[O-])cc1` (stereo not drawn), the activation is inactive: -0.1%.

`CC(=O)c1ccc(N2CC2c2ccncc2)cc1` (stereo not drawn): the activation entry was “inactive”.

With `COc1ccc2c(c1O)-c1c(O)c(OC)cc3c1[C@H](C2)[N+](C)(C)CC3.O=[N+]([O-])c1cc([N+](=O)[O-])c([O-])c([N+](=O)[O-])c1[O-]`, the activation is inactive: 0.7%.

Turning to `CCOC(=O)NC(Sc1ccccc1)C(Cl)(Cl)Cl` (stereo not drawn), the activation result was “inactive”.

On to `CCNC(=S)/N=C(\N)N[N+](=O)[O-]`, for which the activation entry was “inactive”.

In the case of `COc1ccc(OP(C)(=O)Nc2ccc(SC(F)(F)F)cc2)cc1` (stereo not drawn), the activation was inactive: 0%.

Regarding `CCOC(=O)c1ccc(NP(C)(=O)Oc2ccc(F)cc2)cc1` (stereo not drawn), the activation is inactive: -0.2%.

On to `CCN(CC)CCCOC(=O)C(O)(c1ccccc1)C1CCCCC1` (stereo not drawn), for which the activation was inactive: -0.2%.

As for `O=C(OC1CN2CCC1CC2)c1ccccc1` (stereo not drawn), the activation entry was “inactive”.

Regarding `CCCCCOc1ccc(NP(C)(=O)Oc2ccc(Cl)cc2Cl)cc1` (stereo not drawn), the activation is inactive: -0.3%.

On to `O=[N+]([O-])c1cc([N+](=O)[O-])c(OC2CCCCC2O)c([N+](=O)[O-])c1` (stereo not drawn), for which the activation is inactive: -0.2%.

With `CP(=O)(Nc1ccccc1)Oc1ccc(F)cc1` (stereo not drawn), the activation is inactive: -0.2%.
